Results on 1 substance are retold here after paper PMC3582033 (Cell, 2011).

For the assay, the system named is TRIM33 PHD finger. Briefly: ITC binding to PHD finger. Conditions: histone H3(1-15).

“histone H3(1-15) containing unmodified lysine 4 and trimethylated lysine 9: histone H3(1-15) containing unmodified lysine 4 and trimethylated lysine 9”: the binding preference result was “prefers to bind”.
